Data on one compound can be found in patent publication US20240336643A1, “BIFUNCTIONAL COMPOUNDS THAT DEGRADE ALK AND USES THEREOF” (DANA-FARBER CANCER INSTITUTE, INC., priority 2021, published 2024).

Protein sequences, listed by entry. Tags and fused reporters are not part of them. Chains listed by the source or under a name are the forms on record and can include a tag or linker.
UniProt Q9UM73, with tags, fused parts or gaps G1202R: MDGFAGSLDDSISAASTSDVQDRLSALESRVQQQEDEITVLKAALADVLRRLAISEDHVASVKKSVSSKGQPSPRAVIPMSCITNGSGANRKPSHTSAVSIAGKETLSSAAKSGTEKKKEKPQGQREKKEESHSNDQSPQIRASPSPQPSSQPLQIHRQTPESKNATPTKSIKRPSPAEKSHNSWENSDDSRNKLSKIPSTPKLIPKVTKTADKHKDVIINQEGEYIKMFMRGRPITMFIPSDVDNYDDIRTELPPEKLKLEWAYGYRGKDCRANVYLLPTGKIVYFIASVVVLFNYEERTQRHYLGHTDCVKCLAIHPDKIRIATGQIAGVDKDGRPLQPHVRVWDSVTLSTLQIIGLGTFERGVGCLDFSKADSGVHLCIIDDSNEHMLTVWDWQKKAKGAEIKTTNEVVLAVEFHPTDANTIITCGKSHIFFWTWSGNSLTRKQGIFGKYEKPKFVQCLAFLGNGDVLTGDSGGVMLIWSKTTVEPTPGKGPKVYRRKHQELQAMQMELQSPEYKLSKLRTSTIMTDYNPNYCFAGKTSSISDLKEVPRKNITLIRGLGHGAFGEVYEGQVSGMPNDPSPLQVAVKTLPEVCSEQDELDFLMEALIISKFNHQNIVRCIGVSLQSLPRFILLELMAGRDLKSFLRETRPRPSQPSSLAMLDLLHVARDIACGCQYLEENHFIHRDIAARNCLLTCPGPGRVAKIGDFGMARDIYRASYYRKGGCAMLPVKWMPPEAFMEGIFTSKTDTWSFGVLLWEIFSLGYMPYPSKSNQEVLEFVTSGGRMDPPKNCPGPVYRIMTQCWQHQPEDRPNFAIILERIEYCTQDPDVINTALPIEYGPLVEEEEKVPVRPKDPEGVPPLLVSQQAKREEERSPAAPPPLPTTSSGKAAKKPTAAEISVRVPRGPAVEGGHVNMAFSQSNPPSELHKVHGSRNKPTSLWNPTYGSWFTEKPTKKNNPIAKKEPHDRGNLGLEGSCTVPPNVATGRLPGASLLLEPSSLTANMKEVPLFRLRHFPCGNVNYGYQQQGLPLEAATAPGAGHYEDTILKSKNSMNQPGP

For the assay, the target named is HiBiT G1202R Variant 1 EML4-ALK (Homo sapiens, UniProt Q9UM73, G1202R). The class given is cell-based. The conditions noted are these: read-out: BAF3 Cellular Degradation - HiBiT G1202R Variant 1 EML4-ALK: DC50; Ba/F3 cells, 0.0003-2 μM, 4 hours.

What is called DC50 is the concentration at which degradation of the target reaches its halfway point. For the compound `COc1cc(CCN2CCC(c3ccc4c(c3)CN(C3CCC(=O)NC3=O)C4=O)CC2)c(C)cc1Nc1ncc(Cl)c(Nc2ccccc2S(=O)(=O)C(C)C)n1` (stereo not shown) [Compound 27, 3-(5-(1-(4-((5-chloro-4-((2-(isopropylsulfonyl)phenyl)amino)pyrimidin-2-yl)amino)-5-methoxy-2-methylphenethyl)piperidin-4-yl)-1-oxoisoindolin-2-yl)piperidine-2,6-dione], the DC50 was 8 nM.
